## Yeast mating assay 2: variants of the scFv Ab-91

Binding partner: SARS-CoV-2 spike HR2 peptide, sequence PDVDLGDISGINAS.

Each scFv is VL, a (GGGGS)3 linker, VH, as in the parent Ab-91, and differs from it in the CDRs of the heavy chain only.
VL: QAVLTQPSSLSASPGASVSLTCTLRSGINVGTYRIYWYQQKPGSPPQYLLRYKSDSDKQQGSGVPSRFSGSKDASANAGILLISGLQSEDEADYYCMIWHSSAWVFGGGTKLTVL
VH: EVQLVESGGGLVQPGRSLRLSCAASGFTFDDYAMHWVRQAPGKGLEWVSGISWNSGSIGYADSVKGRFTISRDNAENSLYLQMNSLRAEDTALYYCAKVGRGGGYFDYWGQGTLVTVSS

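The starting antibody came from a phage panning campaign against this peptide. Library AAYL51 holds single substitutions and randomly drawn double and triple substitutions in the CDRs. Affinity was read by AlphaSeq, a pooled yeast mating assay with surface-displayed partners. After mating in shaken culture at 30 °C for 16 h, diploids were selected and their barcode pairs sequenced. A regression on co-assayed BCL2-family reference pairs converts the normalised counts of each replicate to an apparent Kd. The assay was run in three technical replicates.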

The parent's heavy chain CDRs are GFTFDDYAMH, GISWNSGSIGYADSVK, VGRGGGYFDY; each variant's own CDRs replace them letter for letter. All variants listed here change S52 of the VH, counted from its first residue. Each Kd is an estimate from the mating assay, the geometric mean of the replicates in which the pair was seen; lower is stronger. "nd" marks a missing value. The strain was present, yet no cells mated with the target were sequenced in any replicate, which points to weak or no binding. Nonspecific signal, from three strains lacking the peptide, appeared in 21% of pairings of library AAYL51, centred on 34 µM (5% of these signals below 1.8 µM); values are not corrected for it. In this assay the parent's reference entry averaged 72 nM; its copy inside this library read 7.5 nM.

The variant AFTFDDYAMH / GPVWNSGSIGYADSVK / VGRGGGYFDY showed 26 µM (2 of 3 replicates). With GFTFDDYAME / GIYWNSGSIGYADSVK / VGRGGGYFDM the result was 170 µM (3 of 3 replicates). The variant DFTFDDYAMH / GIGWNSGSIGYADSVK / VGRYGGYFDY gave nd (0 of 3 replicates). For GFTFDDYAMH / GIDVNSGSIGYADTVK / VGRGGGYFDY, the assay gave nd (0 of 3 replicates). The variant FFTFDDYAMH / GIYWNSGSIGYADSVK / VGRGGGYFDY showed nd (0 of 3 replicates). With GGTFDDYAMH / GICWNSGSIAYADSVK / VGRGGGYFDY the result was 240 µM (2 of 3 replicates). The variant GFTRDDYAMH / IIDWNSGSIGYADSVK / VGRGGGYFDY gave 22 µM (1 of 3 replicates).

The variant GFTFDDYAMH / GILWNIGSIGYADNVK / VGRGGGYFDY gave 12 µM (2 of 3 replicates). The variant GGTFDDYAMH / GIIWNSGSIGYADCVK / VGRGGGYFDY gave nd (0 of 3 replicates). The variant GFTFDDYAMH / GINWNSGSIGYADSVK / VGRGMGYFDK showed nd (0 of 3 replicates). The variant GFTFNDYAMH / GIQWNSGSIGYADSVK / VGRGGQYFDY gave 8.5 µM (3 of 3 replicates). The variant GFTFDDYAMH / GIGWNSGSIGYADLVK / VGDGGGYFDY gave 14 µM (2 of 3 replicates). The variant GYTFDDYAMH / GIWWNSGSIGQADSVK / VGRGGGYFDY showed nd (0 of 3 replicates). The variant GFTFDDYAMH / GVFWNSGSIGYADSVK / VGRGQGYFDY showed 84 µM (1 of 3 replicates).

With GFTFDDYAMH / GIWWNSGSIGYADSVK / VGRGGGYFDY the result was 200 µM (3 of 3 replicates). For GFTFDDYAMH / NIMWNSGSIGYADSVE / VGRGGGYFDY, the assay gave 72 µM (2 of 3 replicates). The variant GFTFDDYAMH / GIMWNSGSILYADSVK / VGRGGSYFDY gave 88 µM (3 of 3 replicates). With GFTFDDYAMH / GIQWNSGSKGYADSVK / VGRHGGYFDY the result was nd (0 of 3 replicates). For GFTFDDYAMH / GIAWNSGSIGAADSVK / VGRGGGYFDE, the assay gave nd (0 of 3 replicates). The variant GFTFHDYAMH / GIAWNSGSIGTADSVK / VGRGGGYFDY gave 9.6 nM (3 of 3 replicates). With GFTFDDYAMH / GILWNSGSIGYADSVK / VGRGGGYKDY the result was 27 µM (1 of 3 replicates).

With GFTFDDYAMH / DITWNSGSIGYADSVK / VGRGSGYFDY the result was nd (0 of 3 replicates). The variant GFTFDDYAMH / GIVWNSGNIGYADSVK / VGRGGGYPDY gave 640 µM (2 of 3 replicates). With GFTFDDYAMH / GIHWRSGSIGYADSVK / VGRGTGYFDY the result was nd (0 of 3 replicates). The variant GFYFDDYAMH / GIRWNSGSIGYADSVK / VGVGGGYFDY gave 24 µM (2 of 3 replicates). For GFTFDDYAMH / GIAWNSGSIGYADSVK / VGRGDGRFDY, the assay gave nd (0 of 3 replicates). The variant GFTFDDYAMH / GIAWNSGSIGYADSIK / VGRGGGYFDY showed 27 nM (3 of 3 replicates). With GFTFDDYAMH / GILWNSGSIGYADSVK / VGRGGGYFDY the result was 3.6 µM (1 of 3 replicates).

The variant GFTHDDYAMH / GIAWNSGSIGYADLVK / VGRGGGYFDY gave 26 nM (1 of 3 replicates). The variant GFTADDYAMH / GIGWNSGSIGYADSVK / VGRGGGYFCY gave nd (0 of 3 replicates). The variant GFTFDDYAMH / GIYWNSGSIGYYDSVC / VGRGGGYFDY showed nd (0 of 3 replicates). For GFTFDDYAMH / GIFWNSGSIGYADSVK / FGRGGGYLDY, the assay gave nd (0 of 3 replicates). For GFTFDDYAMH / GIMWNSGSIGYADSKK / VGRGGGDFDY, the assay gave 270 µM (1 of 3 replicates). For GFTFDDYIMH / GINYNSGSIGYADSVK / VGRGGGYFDY, the assay gave nd (0 of 3 replicates). The variant GFTFDDYAMY / GIDSNSGSIGYADSVK / VGRGGGYFDY gave nd (0 of 3 replicates).

With GFTFDDYAMH / GIHWNSGSIGYADSVK / VGRGGGYNDY the result was 110 µM (2 of 3 replicates). With GFTFDKYAMH / GIKWNSGSIGYADSVA / VGRGGGYFDY the result was 4.7 µM (1 of 3 replicates).

The 5 strongest on average among those seen in every replicate, once more:

{"CDR-H1": "GFTFHDYAMH", "CDR-H2": "GIAWNSGSIGTADSVK", "CDR-H3": "VGRGGGYFDY", "Kd (apparent)": "9.6 nM", "seen in": "3 of 3"}
{"CDR-H1": "GFTFDDYAMH", "CDR-H2": "GIAWNSGSIGYADSIK", "CDR-H3": "VGRGGGYFDY", "Kd (apparent)": "27 nM", "seen in": "3 of 3"}
{"CDR-H1": "GFTFNDYAMH", "CDR-H2": "GIQWNSGSIGYADSVK", "CDR-H3": "VGRGGQYFDY", "Kd (apparent)": "8.5 µM", "seen in": "3 of 3"}
{"CDR-H1": "GFTFDDYAMH", "CDR-H2": "GIMWNSGSILYADSVK", "CDR-H3": "VGRGGSYFDY", "Kd (apparent)": "88 µM", "seen in": "3 of 3"}
{"CDR-H1": "GFTFDDYAME", "CDR-H2": "GIYWNSGSIGYADSVK", "CDR-H3": "VGRGGGYFDM", "Kd (apparent)": "170 µM", "seen in": "3 of 3"}

Reference: Engelhart et al. 2022, doi:10.1038/s41597-022-01779-4. File: FLAb, binding data.